Sampled rows, rich in hits. Any-hit rate of the full collection: about 0.43%.
HCMV UL50-53 inh: disrupts HCMV UL50-UL53 complex binding; inhibition, % (no concentration beside the values); AID 1918969; HTRF UL50-UL53 interaction, normalized percent inhibition; 0.15% of 190,000 active; in the data active means inhibition above about 27%, passing the limit was not always enough
GIV-Gai inh: inhibitors of GIV peptide binding to Galpha-i3, primary screen, biochemical, fluorescence polarization, FITC-GIV GBA peptide, rat Galphai3; 90 min; stronger effect = lower value; scaled: aluminum fluoride 0%, vehicle 100%; percent of control (FP), % (test concentration not listed); 0.42% of 210,000 active; AID 1224905, 2016;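 active = replicate mean at 85% of control or lower, very high polarization wells dropped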;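 also: wells of about 15 µL received 100 nL stock; the first replicate is given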
GIV-Gai FP conf: GIV-Galpha-i3 inhibition, FP confirmation. shares compounds with GIV-Gai inh. FITC-GIV peptide binding to Galphai3, fluorescence polarization; stronger effect = lower value. fluorescence polarization, mP at 100 µM. 38% of 580 active. AID 1259350;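 active means inhibition score of 15 or more, meaning 100 minus mean polarization as percent of control over three replicates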
GIV-Gai AS conf: confirmation of inhibitors of GIV binding to human Galpha-i3 | AlphaScreen counts at 100 µM | AlphaScreen Galphai3-GIV binding, purified proteins, 90 min; stronger effect = lower value | shares compounds with GIV-Gai inh | 39% of 580 active;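 active means inhibition score at or above a set limit, where the score is 100 minus the three-replicate mean percent of control signal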
A number is an active result.

`CCN(C(=O)Cn1ncc2c(=O)oc3ccccc3c21)c1cc(OC)ccc1OC` gave HCMV UL50-53 inh inactive, GIV-Gai inh inactive, GIV-Gai FP conf inactive and GIV-Gai AS conf inactive.
`CCOc1ccccc1N(CC)C(=O)Cn1ncc2c(=O)oc3ccccc3c21` gave HCMV UL50-53 inh inactive and GIV-Gai inh inactive.
`O=C(O)C1CC(=O)N(Cc2ccc(F)cc2)C1` (stereo unspecified) gave GIV-Gai inh inactive.
Screening O=C(O)C1CC(=O)N(Cc2ccc3c(c2)OCO3)C1 (stereo unspecified) returned HCMV UL50-53 inh inactive, GIV-Gai inh 51, GIV-Gai FP conf 18 and GIV-Gai AS conf 1816.
For CCC(C)NC(=O)COc1nc(C)nc2onc(-c3ccc(F)cc3)c12 (stereo unspecified) the results were GIV-Gai inh inactive.
For CCc1ccc(NC(=O)C2=CC(c3ccc4c(c3)OCO4)=NS(=O)(=O)N2C)cc1 the results were HCMV UL50-53 inh inactive and GIV-Gai inh inactive.
Screening CN1C(C(=O)Nc2ccc(OC(F)(F)F)cc2)=CC(c2ccc3c(c2)OCO3)=NS1(=O)=O returned HCMV UL50-53 inh inactive, GIV-Gai inh 55, GIV-Gai FP conf inactive and GIV-Gai AS conf inactive.
For O=C(CSc1nnc2c3sc(N4CCCC4)nc3ncn12)Nc1ccccc1 the results were GIV-Gai inh 81, GIV-Gai FP conf inactive and GIV-Gai AS conf inactive.
Screening COc1ccc(NC(=O)CSc2nnc3c4sc(N5CCCC5)nc4ncn23)cc1 returned GIV-Gai inh inactive.
For COc1ccc(-c2c(C#N)c(N)n3c(nc4ccccc43)c2C#N)cc1OC the results were HCMV UL50-53 inh inactive, GIV-Gai inh 83, GIV-Gai FP conf inactive and GIV-Gai AS conf inactive.
Screening COc1ccc(-c2c(C#N)c(N)n3c(nc4ccccc43)c2C#N)cc1O returned GIV-Gai inh inactive.
`Cc1cc(C(F)(F)F)n2nc(-c3ccccc3)cc2n1` gave HCMV UL50-53 inh inactive and GIV-Gai inh inactive.
`Cc1cc(-c2ccccc2)n2nc(-c3ccc(Cl)cc3)cc2n1` gave GIV-Gai inh 51, GIV-Gai FP conf inactive and GIV-Gai AS conf inactive.
For Cn1c(=O)c2c(SCC(=O)NCC3CCCO3)nc(-c3ccccc3)nc2n(C)c1=O (stereo unspecified) the results were HCMV UL50-53 inh inactive and GIV-Gai inh inactive.
O=C(O)c1ccc(CS(=O)(=O)c2ccccc2)o1 was read as GIV-Gai inh 77, GIV-Gai FP conf inactive and GIV-Gai AS conf 2163.
NNC(=O)c1ccc(CS(=O)(=O)c2ccccc2)o1 was read as HCMV UL50-53 inh inactive.
For Cc1nnsc1C(=O)N1CCc2[nH]c3ccc(F)cc3c2C1 the results were HCMV UL50-53 inh inactive and GIV-Gai inh inactive.
For C=CCNC(=O)N1CCc2[nH]c3ccc(F)cc3c2C1 the results were HCMV UL50-53 inh inactive, GIV-Gai inh 85, GIV-Gai FP conf 59 and GIV-Gai AS conf inactive.
`CS(=O)(=O)N(CC(N)=O)Cc1ccc(F)cc1` gave HCMV UL50-53 inh inactive and GIV-Gai inh inactive.
For Cc1cc(N2CCCC2)nc(N2CCN(C(=O)c3ccc(Br)cc3)CC2)n1 the results were GIV-Gai inh inactive.
For Oc1ccc2ncccc2c1C(Nc1ccccn1)c1ccco1 (stereo unspecified) the results were HCMV UL50-53 inh inactive, GIV-Gai inh 79, GIV-Gai FP conf inactive and GIV-Gai AS conf 5282.
Screening Oc1ccccc1C(Nc1ccccn1)c1ccc2cccnc2c1O (stereo unspecified) returned HCMV UL50-53 inh inactive.
`COc1cc(NC(=O)c2cccc(Nc3ccc(-c4cccc(C)c4)nn3)c2)cc(OC)c1` gave HCMV UL50-53 inh inactive and GIV-Gai inh inactive.
CC(=O)Nc1ccc2c(c1)C1C=CCC1C(C(=O)O)N2 (stereo unspecified) was read as HCMV UL50-53 inh inactive and GIV-Gai inh inactive.
For O=C(O)C1Nc2c(I)cccc2C2C=CCC12 (stereo unspecified) the results were HCMV UL50-53 inh inactive, GIV-Gai inh 43, GIV-Gai FP conf 36 and GIV-Gai AS conf 1672.
Screening CC1(C)N2CC3([N+](=O)[O-])CN1CC([N+](=O)[O-])(C2)C3(C)C returned GIV-Gai inh inactive, GIV-Gai FP conf inactive and GIV-Gai AS conf inactive.
Screening CC1(C)C2([N+](=O)[O-])CN3CC1([N+](=O)[O-])CN(C2)C3c1ccc(O)cc1 (stereo unspecified) returned GIV-Gai inh inactive.
CNC(=O)Nc1ccc(C2(C(=O)N3CCCC3)CCC2)cc1 was read as GIV-Gai inh inactive.
Screening COc1ccc(NC(=O)c2sc3nc4n(c(=O)c3c2C)CCC4)cc1Cl returned HCMV UL50-53 inh inactive, GIV-Gai inh 83, GIV-Gai FP conf inactive and GIV-Gai AS conf inactive.
Screening COc1cc(NC(=O)c2sc3nc4n(c(=O)c3c2C)CCCCC4)cc(OC)c1OC returned HCMV UL50-53 inh inactive and GIV-Gai inh inactive.
For O=C(c1cccc(Nc2ncc(-c3cccc(F)c3)cn2)c1)N1CCCC1 the results were GIV-Gai inh inactive.
CCc1ccc(S(=O)(=O)/N=C2\C=CC(=O)c3ccccc32)cc1 was read as GIV-Gai inh 5.6, GIV-Gai FP conf 12 and GIV-Gai AS conf 1607.
For CCc1ccc(S(=O)(=O)/N=C2/C=C(Nc3ccccc3)C(=O)c3ccccc32)cc1 the results were GIV-Gai inh inactive.
`CS(=O)(=O)N1CCN(c2ccc(Nc3nc4ccccc4nc3N3CCOCC3)cc2)CC1` gave HCMV UL50-53 inh inactive and GIV-Gai inh inactive.
`CC1=CC(=C2C(=O)c3ccccc3C2=O)C=C(C)N1C(C)C` gave HCMV UL50-53 inh inactive, GIV-Gai inh 73, GIV-Gai FP conf inactive and GIV-Gai AS conf inactive.
`CC1=CC(=C2C(=O)c3ccccc3C2=O)C=C(C)N1CCO` gave HCMV UL50-53 inh inactive and GIV-Gai inh inactive.
For O=C1C(O)=C(c2ccccc2)C(c2ccc(F)cc2)N1Cc1ccc(Cl)cc1 (stereo unspecified) the results were HCMV UL50-53 inh inactive and GIV-Gai inh inactive.
O=C(CCC(=O)N1CCc2cc(S(=O)(=O)N3CCc4ccccc4C3)ccc21)N1CCOCC1 was read as HCMV UL50-53 inh inactive and GIV-Gai inh inactive.
For Cc1cccn2c(=O)cc(COc3cccc(NC(=O)COc4ccccc4)c3)nc12 the results were GIV-Gai inh inactive, GIV-Gai FP conf inactive and GIV-Gai AS conf inactive.
Cc1cccn2c(=O)cc(COc3cccc(NC(=O)COc4ccc(F)cc4)c3)nc12 was read as GIV-Gai inh inactive.
For COc1cccc(C2C3=C(CC(C)(C)CC3=O)OC3=C2C(=O)CC(C)(C)C3)c1OC the results were HCMV UL50-53 inh inactive.
For CN1C(=O)/C(=C/c2cn(CC(=O)N3CCCC3)c3ccccc23)C(=O)NC1=S the results were HCMV UL50-53 inh inactive and GIV-Gai inh inactive.
CCOc1cccc(N2C(=O)/C(=C/c3cn(CC(=O)N4CCOCC4)c4ccccc34)C(=O)NC2=S)c1 was read as HCMV UL50-53 inh inactive, GIV-Gai inh 82, GIV-Gai FP conf inactive and GIV-Gai AS conf inactive.
Cc1ccc(N2C(=O)C3=C(C(c4ccc(Cl)cc4)=NCCN3)C2c2ccc(O)cc2)cc1 (stereo unspecified) was read as GIV-Gai inh inactive.

Assay outcomes as filed in PubChem.
